Experimental data reported in the supplement of paper PMC12340641.
For part of these data: The strong results were mostly taken out for another list; the other results follow. The entries are a selection whose mix differs from that of the whole data set.

Chains of the proteins cited; added tags and fusions are not shown. Lines headed by an entry give the natural chain unless they say otherwise; changes in a name come on top.
UniProt Q13422: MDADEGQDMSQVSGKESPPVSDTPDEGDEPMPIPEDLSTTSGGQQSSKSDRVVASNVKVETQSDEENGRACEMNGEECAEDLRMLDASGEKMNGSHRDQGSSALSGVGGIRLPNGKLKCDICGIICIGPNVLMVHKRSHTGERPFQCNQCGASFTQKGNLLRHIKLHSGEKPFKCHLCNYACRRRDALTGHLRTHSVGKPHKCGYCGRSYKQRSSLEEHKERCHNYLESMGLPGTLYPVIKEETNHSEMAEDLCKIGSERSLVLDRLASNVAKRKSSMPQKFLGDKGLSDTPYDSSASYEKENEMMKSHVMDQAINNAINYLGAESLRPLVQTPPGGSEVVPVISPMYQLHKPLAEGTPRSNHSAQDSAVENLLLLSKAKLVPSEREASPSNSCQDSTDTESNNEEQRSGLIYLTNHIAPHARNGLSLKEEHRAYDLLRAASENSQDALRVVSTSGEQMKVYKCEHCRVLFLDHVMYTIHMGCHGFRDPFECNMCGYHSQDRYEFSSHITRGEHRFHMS

Columns and labels:
[1] = target: IKZF1 (dCK*-IKZF1 fusion in HEK293FT) (UniProt Q13422); experiment: inhibition of IKZF1 HTRF signal (DMSO = 0%, pomalidomide 10 uM = 100%); higher = lower IKZF1 protein level; conditions: compound concentration: 5 uM, overnight (~20 h)
Outline: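 Percent inhibition of IKZF1 signal was calculated per plate with vehicle and a reference degrader as anchors. The anchors were 0% for vehicle and 100% for the degrader, applied to background-subtracted 665/620 nm time-resolved FRET ratios from a commercial HTRF total-IKZF1 kit. Signal came from HEK293FT cells stably expressing an IKZF1 fusion, treated overnight at 37 °C with 5 μM compound in single wells of 384-well plates.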

[2] = system: HEK293FT dCK*-only; experiment: relative growth in counter assay (no AraC = 100%, AraC + DMSO = 0%); higher = more growth rescue independent of IKZF1; conditions: compound concentration: 5 uM; AraC concentration: 0.3 uM; overnight pretreatment + 4 days AraC
Outline: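 Nuclei were counted by imaging after Hoechst 33342 staining on day 5, in HEK293FT cells (300/well, 384-well) expressing only an engineered kinase construct. Compound at 5 μM went in 2 h after seeding, followed after overnight at 37 °C by a nucleoside suicide substrate at 0.3 μM plus medium for 4 days. Per plate, wells lacking suicide substrate defined 100% and those with substrate plus vehicle defined 0%.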

[3] = system: HEK293FT dCK*-IKZF1; experiment: relative growth recovery (pomalidomide 10 uM = 100%, DMSO = 0%); higher = more growth rescue (IKZF1 fusion degradation); conditions: compound concentration: 5 uM; AraC concentration: 0.3 uM; overnight pretreatment + 4 days AraC
Outline: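 HEK293FT cells stably expressing a dCK*-IKZF1 fusion (300/well, 384-well) received 5 μM compound 2 h after seeding. After overnight at 37 °C they received a nucleoside suicide substrate at 0.3 μM plus medium for 4 days. On day 5, Hoechst 33342-stained nuclei were counted by whole-well imaging. Growth recovery was normalised per plate to a reference degrader (100%) and vehicle (0%); values are means of duplicates run on different days.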

SMILES: COc1cc(Br)c(C[N+]2(CCOCCC3CC[C@H]4C[C@@H]3C4(C)C)CCOCC2)cc1OC (stereo partly drawn) [pinaverium]
- inhibition of IKZF1 HTRF signal [1]: -28.2%
- relative growth in counter assay [2]: 5.92%
- relative growth recovery [3]: 5.54%
